Among the data in patent US7084127B2, “C2,5′-disubstituted and N6, C2,5′-trisubstituted adenosine derivatives and their different uses” (Universiteit Leiden, priority 2001, dated 2006) are Ki values, retold here.

Amino acid sequences for entries named in this document (tags omitted). A change or cut given only in a name is not applied to a line headed by its entry.
UniProt P30543, whole entry: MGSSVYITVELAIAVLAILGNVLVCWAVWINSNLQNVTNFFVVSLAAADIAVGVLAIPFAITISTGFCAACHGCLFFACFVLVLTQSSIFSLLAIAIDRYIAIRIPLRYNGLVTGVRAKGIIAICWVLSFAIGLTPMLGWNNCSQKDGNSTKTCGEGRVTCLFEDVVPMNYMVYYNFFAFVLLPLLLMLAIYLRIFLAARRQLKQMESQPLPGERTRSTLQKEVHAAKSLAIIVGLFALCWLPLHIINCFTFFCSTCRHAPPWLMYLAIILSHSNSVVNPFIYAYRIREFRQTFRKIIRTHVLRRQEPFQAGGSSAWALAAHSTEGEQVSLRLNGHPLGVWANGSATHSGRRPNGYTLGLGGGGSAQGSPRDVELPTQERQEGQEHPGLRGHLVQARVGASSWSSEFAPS

This assay addresses T1, A2A receptor in rat striatum (Rattus norvegicus, UniProt P30543).
T1 construct: the A2A receptor in rat striatum; from tissue; host or cells: rat striatum
The assay can be described thus: Radioligand binding, displacement of [3H]ZM241385 from rat striatal membranes.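 Also: displacement assays run in the absence of GTP.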 The settings on record: [3H]ZM241385, rat striatal membranes. For orientation: Loss of bound radioactivity is the signal in a displacement assay; it reports binding, not function.

The structures appear in SMILES notation.

Regarding `Nc1nc(I)nc2c1ncn2[C@@H]1O[C@H](CO)[C@@H](O)[C@H]1O` [Compound 1, 2-Iodoadenosine], the affinity, expressed as Ki, was 4.2 ± 0.08 µM.
